Reference: patent US20170355705A1 (GlaxoSmithKline Intellectual Property (No.2) Limited, priority 2014, published 2017)

Target: T1, SIRT1 (Homo sapiens, UniProt Q96EB6)
T1 sequence (Q96EB6 1-747): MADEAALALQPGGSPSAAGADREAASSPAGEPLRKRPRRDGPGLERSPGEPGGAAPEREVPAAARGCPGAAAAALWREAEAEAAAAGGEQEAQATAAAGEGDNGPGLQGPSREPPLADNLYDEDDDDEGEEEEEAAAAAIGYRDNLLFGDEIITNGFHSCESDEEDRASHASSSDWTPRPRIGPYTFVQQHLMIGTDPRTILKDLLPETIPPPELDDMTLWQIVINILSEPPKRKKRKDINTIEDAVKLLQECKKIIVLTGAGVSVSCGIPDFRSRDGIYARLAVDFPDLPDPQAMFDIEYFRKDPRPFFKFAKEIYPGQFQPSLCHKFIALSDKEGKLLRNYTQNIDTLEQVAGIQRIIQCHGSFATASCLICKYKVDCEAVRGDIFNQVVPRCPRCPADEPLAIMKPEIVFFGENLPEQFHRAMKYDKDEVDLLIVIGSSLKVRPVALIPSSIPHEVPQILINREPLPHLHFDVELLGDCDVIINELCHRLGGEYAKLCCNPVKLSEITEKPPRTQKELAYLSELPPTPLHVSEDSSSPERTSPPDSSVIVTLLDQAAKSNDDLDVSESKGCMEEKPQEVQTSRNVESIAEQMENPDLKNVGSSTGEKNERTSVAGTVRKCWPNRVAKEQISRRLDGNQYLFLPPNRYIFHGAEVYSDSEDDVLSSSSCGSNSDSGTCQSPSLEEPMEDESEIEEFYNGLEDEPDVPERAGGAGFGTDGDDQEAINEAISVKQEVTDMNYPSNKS
Assay: Trp mass spectrometry assay of SIRT1 activity (EC1.5, percent maximum activation)
Assay type: biochemical
Excerpt: Mass spectrometry based assays were used to identify modulators of SIRT1 activity. […] The peptide was labeled with the fluorophore 5TMR (excitation 540 nm/emission 580 nm) at the C-terminus. The sequence of the peptide substrate was based on p53 with several modifications. In addition, the methionine residue naturally present in the sequence was replaced with the norleucine because the methionine may be susceptible to oxidation during synthesis and purification.
The Trp mass spectrometry assay was conducted as follows. […] Test compound was added at varying concentrations to this reaction mixture and the resulting reactions were monitored. […] The relative SIRT1 activity was then determined by measuring the amount of O-acetyl-ADP-ribose (OAADPR) formed (or, alternatively, the amount of deacetylated Trp peptide generated) by the NAD-dependent sirtuin deacetylation reaction in the presence of varying concentrations of the test compound versus control reactions lacking the test compound. The degree to which the test agent activated deacetylation by SIRT1 was expressed as EC1.5 (i.e., the concentration of compound required to increase SIRT1 activity by 50% over the control lacking test compound), and Percent Maximum Activation (i.e., the maximum activity relative to control (100%) obtained for the test compound). […]

With `Cc1ccc(-c2ccc3c(n2)N(C(=O)NCC(F)(F)F)[C@H]2CCN3C2)cn1` [Example 272, (4S)-7-(2-methylpyridin-4-yl)-N-(9H-purin-6-yl)-3,4-dihydro-1,4-methano pyrido[2,3-b][1,4]diazepine-5(2H)-carboxamide] the “TRP MAX RESP (percent maximum fold activation)” value was “A (key: A: Fold activation ≧150%; B: Fold Activation <150%)”.
